B1: Protein BTG2 (Homo sapiens), P78543 (parent)
chain: MSHGKGTDMLPEIAAAVGFLSSLLRTRGCVSEQRLKVFSGALQEALTEHYKHHWFPEKPSKGSGYRCIRINHKMDPIISRVASQIGLSQPQLHQLLPSELTLWVDPYEVSYRIGEDGSICVLYEEAPLAASCGLLTCKNQVLLGRSSPSKNYVMAVSS

Variants of: B1
Conditions: with andr_human AR

| Variant | effect of a mutation on the interaction |
| --- | --- |
| MSHGKGTDMLPEIAAAVGFLSSLLRTRGCVSEQRLKVFSGALQEALTEHYKHHWFPEKPSKGSGYRCIRINHKMDPIISRVASQIGLSQPQAHQLAPSELTLWVDPYEVSYRIGEDGSICVLYEEAPLAASCGLLTCKNQVLLGRSSPSKNYVMAVSS [L92A;L96A] | disrupting interaction |

Reference: IntAct's records for PubMed 21172304
